# Screening results deposited in PubChem BioAssay by National Center for Advancing Translational Sciences (NCATS).
# A549 viability: A549 cytotoxicity, counter-screen for Nrf2 inhibitors | A549 ARE-Fluc cells, CellTiter-Fluor viability, 18-24 h | Potency, µM (titrated, usually from 46 µM), inactives show top-dose activity change, negative = cytotoxicity, actives largely listed as inhibitors | 390,000 compounds, 0.16% hits; also: potency is read from the fitted curve at half-maximal effect; % is scaled to controls: 0 for no effect and ±100 for the full control effect
#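 A549 ARE_Fluc cells in 5% FBS OPTI-MEM were exposed to compounds in concentration-response for 18-24 h at 37 deg C. Viability was read by CellTiter-Fluor fluorescence (Ex 405/Em 525) after 30 min, before the luciferase read.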
# Nrf2 ARE act: activators of Nrf2 (ARE) signaling; AREc32 ARE-luciferase reporter (MCF7-derived line), luminescence, 24 h; Potency, µM (top dose mostly 46.1 µM), for inactives: at the highest dose activation, most hits filed as activators; 410,000 compounds, 0.31% hits; AID 624171; also: potency is read from the fitted curve at half-maximal effect; % of control where 0% means no effect; nearly all actives have a fitted effect of over 65% in size
#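 ARE-driven firefly luciferase activity in AREc32 cells measured after a 24 hr compound exposure at 37 deg C, using Steady-Glo reagent and a 30 min room-temperature hold.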
# miR-21 reporter: raises the signal of a miR-21 reporter | HeLa miR-21 FLuc reporter, luciferase, 48 h | Potency, µM (doses to about 38.3 µM), for the others: at the highest dose reporter change, positive = more light | 340,000 tested, under 10 active | AID 2288; active = well fitted rising curve with a large enough effect; inconclusive = small, poorly fitted or top-dose-only effect; inactive = no such curve, though single readings can be large or run the other way;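 also: % of control where 0% means no effect; miR-21 action dims this reporter so a rising signal means less miR-21 action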
#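 HeLa cells stably expressing CMV-driven firefly luciferase with a downstream miR-21 binding sequence, endogenously expressing miR-21, were treated with titrations (up to about 40uM final) for 48 hours at 37 degree Celsius. Luciferase luminescence was read after lysis.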
# PTAP TSG101 blk: blocks PTAP/TSG101 interaction to inhibit HIV-1 budding. Potency, µM (titrated, usually from 115 µM), for inactives: top-dose activity change, negative = inhibition, usual class: inhibitors. 340,000 tested, under 10 active. Q99816. Fluorescence polarization, FITC-PTAP peptide / Tsg101 binding. AID 493005; active = well fitted inhibition curve with a large enough effect in the main read-out, with a control signal flat, not every such curve was filed as active; inconclusive = small, poorly fitted or top-dose-only effect, or effect the other way, or a change in a side signal; inactive = no such curve, though single readings can be large or run the other way; also: potency is read from the fitted curve at half-maximal effect; % of control where 0% means no effect
#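 FP read-out: FITC-PTAP peptide, 50 nM final, binding Tsg101 binding domain, 10 uM final; 20 min, r.t.; 10 mM HEPES pH 7.5, 0.15 M NaCl, 0.01% Tween 20, 3 mM EDTA, 0.1 mM TCEP.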
# Nrf2 block: inhibitors of Nrf2 signaling | 360,000 compounds, 2.1% hits | A549 ARE-Fluc reporter, luciferase luminescence, 18-24 h | AID 504444 | Potency, µM (doses to about 46 µM), inactives show at the top dose activity change, negative = inhibition, usual class: inhibitors; also: potency is read from the fitted curve at half-maximal effect; % is scaled to controls: 0 for no effect and ±100 for the full control effect; nearly all actives have a fitted effect of over 60% in size
#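 Reporter: ARE-Fluc in A549. Exposure: 18-24 h, 37 °C, 5% CO2, 5% FBS OPTI-MEM. Readouts: fluorescent cytotoxicity (CellTiter-Fluor), then luminescent Nrf2 signal after BugLite.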
# Glioma ERSR ind: inducers of ER stress response in human glioma cells. Potency, µM, without a hit: at the top dose activation, most hits filed as activators. 420,000 compounds, 0.02% hits. U87-MG GRP78 promoter luciferase reporter, 16 h; also: potency is read from the fitted curve at half-maximal effect; series mostly up to about 76 µM; % of control where 0% means no effect; nearly all actives have a fitted effect of over 35% in size
#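 Stably transfected U87-MG human glioma cells carrying a GRP78-based luminescent sensor were seeded at 1000 cells/well, pin-dosed with compounds and incubated 16 h. Luciferase reagent was then added, and end-point luminescence was read after 10 min at room temperature.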
# An asterisk follows results filed as active; ? = inconclusive; / = no result given; ! = not active in a repeat; [ ] = another dose, or the depositor's remark. Only some compounds are listed: those with a hit (about 2.1% of all), similar ones and a draw of the others. Unless noted, calls follow the shape of the dose curve; as a rule, active = well fitted curve in the direction sought with a large enough effect; inconclusive = small, poorly fitted or top-dose-only effect, or another doubt; inactive = no such curve, though single readings can be large; an effect the other way counts as inactive or inconclusive.
No. | compound | A549 viability | Nrf2 ARE act | miR-21 reporter | PTAP TSG101 blk | Nrf2 block | Glioma ERSR ind
1 | CC(C)(C)OC(=O)NCc1nnc(-c2nc3ccccc3[nH]2)o1 | -4.0% | / | / | / | 13.7% | /
2 | CCOC(=O)CSC1=C(C#N)C(c2ccc(C)s2)CC(=O)N1 (stereo not given) | ? | 0.2% | 26.9% | -12.8% | 20.6µM* | -3.0%
3 | O=C(NC1CCCC1)c1cn(C2CCCN(Cc3ccc4c(c3)OCCO4)C2)nn1 (stereo not given) | / | / | / | / | / | -4.7%
4 | Cc1ccc(NC(=O)Nc2cccnc2)cc1NC(=O)Nc1cccnc1 | -16.2% | 0.2% | -1.3% | -0.9% | 18.4µM* | 0.2%
5 | O=C(NCC1(N2CCOCC2)CCCC1)c1cnn(-c2nccc(-c3cccs3)n2)c1C1CC1 | / | / | / | / | / | -3.2%
6 | COC(=O)c1cc(CNC(=O)c2ccncc2)cc(NC(=O)c2ccccc2Cl)c1 | / | / | / | / | / | -3.0%
7 | COc1cc(N=c2ssnc2Cl)c(OC)cc1Cl | ? | 7.9% | 10.0% | 3.0% | 23.1µM*! | ?
8 | C1=Cc2ccccc2/C1=C\c1cccc(/C=C2\C=Cc3ccccc32)c1 | / | / | / | / | / | -7.8%
9 | Cc1cc(N2CCCC2)nc2ccc(NC(=S)NCCCN3CCC(C)CC3)cc12 | 9.2µM* | 11.5% | 0.4% | -1.9% | -1.1% | -4.0%
10 | CS(=O)(=O)Nc1cccc(C2=NN(C(=O)c3ccccc3)C(c3cccs3)C2)c1 (stereo not given) | -12.5% | 4.8% | 5.7% | -3.3% | ? | 0.1%
11 | CS(=O)(=O)Nc1ccc(C2=NN(C(=O)C3CCCCC3)C(c3cccs3)C2)cc1 (stereo not given) | -13.1% | 6.5% | 0.3% | 10.8% | 23.1µM* | 1.6%
12 | Cc1ccc(C(=O)N2N=C(c3cccc(NS(C)(=O)=O)c3)CC2c2cccs2)cc1 (stereo not given) | 0.3% | 14.3% | 2.9% | -7.9% | 23.1µM* | -2.2%
13 | CC(C)C(=O)N1N=C(c2ccc(NS(C)(=O)=O)cc2)CC1c1cccs1 (stereo not given) | ? | 2.9% | -8.2% | -6.2% | -28.0% | 2.0%
14 | COc1ccc(C2Nc3ccccc3C(=O)N2CCc2ccccc2)cc1COc1ccc(NC(C)=O)cc1 (stereo not given) | 4.8% | / | / | / | 4.5% | /
15 | COc1ccc2c(c1)CCc1cnc(-n3ncc(C(=O)NCCCc4ccncc4)c3C)nc1-2 | / | / | / | / | / | -2.3%
16 | Cc1cc2c(s1)c1cnn(Cc3cc(F)ccc3C)c(=O)c1n2C | -2.1% | / | / | / | 5.1% | /
17 | COc1ccc(NC(=O)c2cc3c(Cl)nc4ccccc4c3s2)cc1OC | -28.0% | -0.7% | -14.7% | 0.1% | 10.3µM* | 0.4%
18 | Cc1c(CCO)c(=O)n2c([nH]c3ccccc32)c1C#N | -8.9% | 7.5% | 2.3% | -3.3% | -15.4% | 0.5%
19 | CCCc1cc(=O)n2c([nH]c3ccccc32)c1C#N | -24.0% | -0.1% | -16.3% | -2.1% | 14.6µM* | 10.1%
20 | CCCCc1c(C)c(C#N)c2[nH]c3ccccc3n2c1=O | ? | 3.1% | 4.0% | -1.2% | 18.4µM* | -5.6%
21 | CC(CSC(=O)c1ccccc1)C(=O)N1CC(Sc2ccccc2)CC1C(=O)O (stereo not given) | / | / | / | / | / | -3.2%
22 | CCOC(=O)Cn1cccc1-c1nc(-c2ccc(OC)cc2)c(-c2ccc(OC)cc2)s1 | / | / | / | / | / | -2.4%
23 | CCNC(=S)Nc1ccc(Cl)c([N+](=O)[O-])c1 | ? | 3.2% | 12.3% | 0.1% | 18.4µM* | -1.5%
24 | CCNC(=S)Nc1cccc([N+](=O)[O-])c1 | / | / | -2.2% | / | / | /
25 | CC(C)(C)n1ncc2c(=O)n(Cc3ccc(Cl)c(OC(F)(F)F)c3)cnc21 | / | / | / | / | / | -2.3%
26 | O=C(CSc1nc2ccccc2n1Cc1ccccc1)N/N=C/c1ccco1 | -18.1% | ? | 2.0% | -2.5% | 8.2µM* | -1.4%
27 | Cc1ccc(Cn2c(SCC(=O)N/N=C/c3ccc(C)o3)nc3ccccc32)cc1 | -0.9% | 8.5% | -8.9% | 2.8% | -14.0% | -5.4%
28 | CCn1c(SCC(=O)N/N=C/C=C\c2ccco2)nc2ccccc21 | -0.3% | 3.55µM* | -2.6% | -7.1% | ? | -1.9%
29 | Cn1c(SCC(=O)N/N=C/C=C\c2ccco2)nc2ccccc21 | -2.0% | ? | -14.1% | -2.0% | -9.2% | -10.9%
30 | COc1cccc(O)c1CN1CCC2(CC1)c1ccccc1[C@@H](NC(=O)c1ccsc1)[C@@H]2OC | / | / | / | / | / | -4.5%
31 | COc1ccc(Cn2cccc(NC(=O)Nc3cccc(OC)c3)c2=O)cc1 | ? | 0.2% | 22.5% | -0.2% | 5.17µM* | -4.1%
32 | COc1cccc(NC(=O)Nc2cccn(Cc3ccccc3)c2=O)c1 | -27.8% | 5.6% | 3.5% | 5.4% | 11.6µM* | 5.3%
33 | COc1cccc(Cn2cccc(NC(=O)Nc3ccccc3C)c2=O)c1 | -4.1% | 9.0% | 0.2% | 1.3% | ? | -1.7%
34 | COc1ccc(Cn2cccc(NC(=O)Nc3ccc(F)cc3)c2=O)cc1 | -1.0% | 3.8% | -2.5% | -3.8% | ? | -4.9%
35 | CSc1ccc(NC(=O)Nc2cccn(Cc3ccccc3)c2=O)cc1 | ? | 3.3% | -19.8% | -1.1% | 11.6µM* | 1.0%
36 | CSc1ccccc1NC(=O)Nc1ccc(Cl)cc1 | 22.8%[1.84 µM] | 5.0% | -9.4% | -2.9% | 7.31µM* | 6.4%
37 | O=c1c2ccccc2nc(-c2ccccc2O)n1Cc1ccccc1 | 0.9% | / | / | / | 13.2% | /
38 | COc1ccccc1C1CN(Cc2cccc3c2OCO3)Cc2ccccc2O1 (stereo not given) | / | / | / | / | / | -4.1%
39 | CCN(Cc1ccncc1)Cc1ccc2c(c1)CN(C(=O)c1cccc3c(C)c(C)[nH]c13)CCO2 | / | / | / | / | / | -5.6%
40 | CN(C)c1ccc(N=Nc2ccc(/C=C/c3ccnc4ccccc34)cc2)cc1 | / | / | / | / | / | -2.9%
41 | Cc1ccc(NS(=O)(=O)c2cc(NC(=O)c3ccc4c(c3)NC(=O)CS4)ccc2Cl)c(C)c1 | ? | -1.2% | ? | 0.1% | 7.31µM* | -0.9%
42 | COc1ccc(CC(=O)Nc2cccc(-c3nnc(-c4ccco4)o3)c2)cc1 | ? | -0.6% | 16.9% | 0.7% | 6.51µM* | -0.9%
43 | O=C1CCC2=C1C1(CCCC1)N=C(Nc1nc3ccccc3o1)N2 | -4.1% | / | / | / | ? | /
44 | COC(=O)c1ccc2c(c1)C(C)(C)C(/C=C/c1ccc(OC)c(OC)c1OC)=[N+]2C | ? | -3.3% | ? | -0.3% | 16.4µM* | -18.3%
45 | COC(=O)c1ccc2c(c1)C(C)(C)C(/C=C/c1ccc(O)cc1)=[N+]2C | ? | ? | ? | 47.6% | / | -12.2%
46 | COc1cc(=O)n2c(c1C(=O)NCc1ccc3c(c1)OCO3)CCN(C(=O)c1ccccc1F)CC2 | / | / | / | / | / | -3.2%
47 | CCCCNc1c(-c2ccc(OC)c(Sc3ccc(OC)cc3)c2)nc2ccccn12 | ? | -2.5% | / | / | 18.4µM* | -10.4%

# Some of the entries so far, with one line to a screen.
20	CCCCc1c(C)c(C#N)c2[nH]c3ccccc3n2c1=O
15	COc1ccc2c(c1)CCc1cnc(-n3ncc(C(=O)NCCCc4ccncc4)c3C)nc1-2
22	CCOC(=O)Cn1cccc1-c1nc(-c2ccc(OC)cc2)c(-c2ccc(OC)cc2)s1
8	C1=Cc2ccccc2/C1=C\c1cccc(/C=C2\C=Cc3ccccc32)c1
screen / no. | 20 | 15 | 22 | 8
A549 viability | ? | / | / | /
Nrf2 ARE act | 3.1% | / | / | /
miR-21 reporter | 4.0% | / | / | /
PTAP TSG101 blk | -1.2% | / | / | /
Nrf2 block | 18.4µM* | / | / | /
Glioma ERSR ind | -5.6% | -2.3% | -2.4% | -7.8%
